From patent publication US9274101B2 (BIOLOG, Inc., priority 2001, dated 2016)

Key:
T harzianum DAOM 190830 = test: Carbon source utilization in SF-N MICROPLATE with redox purple; assay type: cell-based, Trichoderma harzianum
[1] = test system: E. coli 287 (ATCC #11775); test: Carbon source utilization in GN / SF-N MICROPLATE with redox purple, tetrazolium violet or resazurin
[2] = redox purple 200 μM, 0.25% GELRITE, 30° C., approximately 24 hours

| Compound | carbon source utilization result (T harzianum DAOM 190830; [2]) | further results |
| --- | --- | --- |
| NC(=O)CCC(=O)O [succinamic acid] | positive | – |
| COC1OC(CO)C(O)C(O)C1O (stereo not drawn) [β-methyl glucoside] | positive | – |
| O=C(O)CC(O)(CC(=O)O)C(=O)O [Citric acid] | positive | – |
| dextrin | positive | – |
| Tween-80 | positive | – |
| O=C1CC[C@@H](C(=O)O)N1 [L-pyroglutamic acid] | positive | – |
| OCC(O)CO [Glycerol] | positive | – |
| OC[C@@H](O)[C@@H](O)[C@H](O)[C@@H](O)CO [D-sorbitol] | positive | – |
| C[C@H](O)[C@@H](O)[C@@H](O)[C@H](O)C=O [L-fucose] | positive | – |
| NC(=O)C[C@H](N)C(=O)O [L-asparagine] | positive | – |
| O=C(O)CCCCCCCCC(=O)O [sebacic acid] | positive | – |
| O=C(O)[C@@H]1CCCN1 [L-proline] | positive | carbon source utilization result ([1]; redox purple, 0.85% NaCl suspension): negative; carbon source utilization result ([1]; the remaining results (all indicator/suspension combinations except redox purple in 0.85% NaCl)): positive |
| COC(=O)C(C)=O [Methyl pyruvate] | positive | – |
| O=C(O)[C@]1(O)C[C@@H](O)[C@@H](O)[C@H](O)C1 [quinic acid] | positive | – |
| NCC(=O)N[C@@H](CCC(=O)O)C(=O)O [Glycyl-L-glutamic acid] (H-Gly-Glu-OH) | – | carbon source utilization result (T harzianum DAOM 190830): positive |
| NCCCC(=O)O [γ-aminobutyric acid] | positive | carbon source utilization result ([1]; resazurin, 0.2% carrageenan suspension): positive; carbon source utilization result ([1]; resazurin, 0.85% NaCl suspension): equivocal (±) |
| NCCC[C@H](N)C(=O)O [L-ornithine] | positive | – |
| O=C[C@H](O)[C@@H](O)[C@H](O[C@@H]1O[C@H](CO)[C@@H](O)[C@H](O)[C@H]1O)[C@H](O)CO [Cellobiose] | positive | – |
| CC(O)CC(=O)O (stereo not drawn) [β-hydroxybutyric acid] | positive | – |
| C[C@H](N)C(=O)NCC(=O)O [L-alanyl-glycine] (H-Ala-Gly-OH) | – | carbon source utilization result (T harzianum DAOM 190830): positive |
| O=C(O)CCC(=O)C(=O)O [α-ketoglutaric acid] | – | carbon source utilization result (T harzianum DAOM 190830): positive |

| Compound | carbon source utilization result (T harzianum DAOM 190830; [2]) | further results |
| --- | --- | --- |
| glycogen | positive | – |
| O=C(O)CC(Br)C(=O)O (stereo not shown) [Bromo succinic acid] | positive | – |
| N[C@@H](CCC(=O)O)C(=O)O [L-glutamic acid] | positive | carbon source utilization result [1]: positive |
| OC[C@@H](O)[C@@H](O)[C@H](O)[C@H](O)CO [D-mannitol] | positive | – |
| OC[C@H]1O[C@H](O[C@H]2O[C@H](CO)[C@@H](O)[C@H](O)[C@H]2O)[C@H](O)[C@@H](O)[C@@H]1O [D-trehalose] | positive | – |
| CC(=O)N[C@H]1C(O)O[C@H](CO)[C@@H](O)[C@@H]1O (stereo partly drawn) [N-acetyl-D-glucosamine] | positive | – |
| OC[C@H]1O[C@H](OCC2O[C@@H](O)[C@H](O)[C@@H](O)[C@@H]2O)[C@H](O)[C@@H](O)[C@H]1O (stereo partly drawn) [D-melibiose] | positive | – |
| O=C(CO)[C@@H](O)[C@H](O)[C@H](O)CO [D-fructose] | positive | – |
| O=C[C@@H](O)[C@@H](O)[C@H](O)[C@H](O)CO [D-mannose] | positive | – |
| N[C@@H](Cc1ccccc1)C(=O)O [L-phenylalanine] | positive | – |
| N[C@@H](CO)C(=O)O [L-serine] | positive | – |
| OC[C@H]1O[C@@H](n2cnc3c(O)ncnc32)[C@H](O)[C@@H]1O [Inosine] | positive | – |
| OC[C@@H](O)C(O)[C@H](O)CO [D-arabitol] | positive | – |
| gentiobiose | – | carbon source utilization result (T harzianum DAOM 190830): positive |
| O=C(O)CCC(=O)O [Succinic acid] | positive | – |
| O=C[C@H](O)[C@@H](O)[C@@H](O)[C@H](O)CO [D-galactose] | positive | – |
| Tween-40 | positive | – |
| C[C@H](N)C(=O)O [L-alanine] | positive | – |
| OC[C@@H](O)[C@@H](O)CO [i-erythritol] | positive | – |
| OC[C@H]1O[C@H](O)[C@H](O)[C@@H](O)[C@@H]1O [α-D-glucose] | positive | – |

Read-outs that look alike come from different tables or passages of the source. Where a SMILES comes first, the peptide text is derived from it.
